This is a selection; strong and weak results do not stand in their true shares. The source made the active and inactive calls. How the calls were made is not given here.

By inhibition is commonly meant the change of the read-out against control, counted positive when it falls.

This test has as its target Eukaryotic translation initiation factor 4H (Homo sapiens) (UniProt Q15056). The test is described as follows: eIF4H binding inhibition – biochemical, uHTS, fluorescence polarization, translation initiation inhibitor project, primary screen (AID 2012).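 Further: calls also rest on retests at 20 µM and on dose response follow-up.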 The following applies: eIF4H fluorescence polarization binding assay; at 35 µM; hits give high values.
For `CC(=O)NC(SC(=S)N(C)C)C(Cl)(Cl)Cl` (stereo unspecified), the inhibition is active: -0.7%.

Take `C[N+]1=C2C=CC=CC=C2SC12C([N+](=O)[O-])=CC([N+](=O)[O-])=C[C-]2[N+](=O)[O-]` (stereo unspecified): the inhibition was active: 91.9%.

As to `O=[N+]([O-])c1cc([N+](=O)[O-])c(CCN2CCOCC2)c([N+](=O)[O-])c1`, the inhibition is active: 95.2%.

With `O=[N+]([O-])c1cc([N+](=O)[O-])c(-c2ccn[nH]2)s1`, the inhibition is active: 88.2%.

Regarding `CCOC(=O)Nc1ccc([As](=O)(O)O)c(O)c1`, the inhibition was active: 57.8%.

Regarding `CS(=O)(=O)c1cc([N+](=O)[O-])c2no[n+]([O-])c2c1`, the inhibition was active: 69.9%.

The values above are taken from PubChem BioAssay AID2012 (Sanford-Burnham Center for Chemical Genomics, 2009).
